Data on 1 molecule can be found in article PMC4358366 (eLife, 2014).

For the assay, the target named is T1, recombinant human Sirt3 (102–399) (human, UniProt Q9NTG7 102-399).
T1 construct: human Sirt3, NAD-dependent deacetylase, residues 102-399 of the 399 a.a. protein; Plasmid in pTrcHis 2C was a gift from Dr Eric Verdin; the tags are inferred from the vector and the nickel column; also called recombinant Sirt3; source: E. coli Rosetta, purified (nickel column, Superdex75 gel filtration)
T1 sequence (looked up): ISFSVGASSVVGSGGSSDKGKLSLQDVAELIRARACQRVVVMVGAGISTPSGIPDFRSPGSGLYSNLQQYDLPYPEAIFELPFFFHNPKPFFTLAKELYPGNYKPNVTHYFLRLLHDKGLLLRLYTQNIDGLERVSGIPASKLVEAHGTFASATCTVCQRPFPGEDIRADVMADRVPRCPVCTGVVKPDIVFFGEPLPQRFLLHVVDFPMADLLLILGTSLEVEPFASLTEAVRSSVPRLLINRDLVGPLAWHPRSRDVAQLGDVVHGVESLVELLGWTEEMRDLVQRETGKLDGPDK
Nature of the assay: crystal structure; Sirt3 (102–399) with H3K4Cr (1–10) peptide, 1:20 protein/peptide; hanging drop, 291 K; 2.95 Å; six complexes in the asymmetric unit. To be noted: both partners purified.

B1: H3K4Cr (1–10) peptide (peptide, UniProt P68431 2-11, looked up)
peptide: ARTKQTARKS
modifications: crotonyl-lysine at 4
notes: histone H3, residues 1-10, lysine-4 crotonylated; residues 2-8 (RTKQTAR) seen in the electron density; Synthesized on Rink-Amide MBHA resin, so a C-terminal amide is likely; also called H3K4Cr peptide; source: synthetic peptide
As for B1, the binding result was “binds”.
